Laboratory results: PubChem BioAssay AID493012 (Sanford-Burnham Center for Chemical Genomics, 2011)
The entries are a selection whose mix differs from that of the whole data set. The source made the active and inactive calls.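 How the source made its calls: active means inhibition of at least 40% at 20 µM, with no more than 30% in the related APOBEC3A deaminase screen; inactive means the rest.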

By UniProt entry, the sequences of proteins in these tests, tags left out. Where a name states a change or a piece, a line headed by the entry shows the natural chain unless it says otherwise.
UniProt Q9HC16: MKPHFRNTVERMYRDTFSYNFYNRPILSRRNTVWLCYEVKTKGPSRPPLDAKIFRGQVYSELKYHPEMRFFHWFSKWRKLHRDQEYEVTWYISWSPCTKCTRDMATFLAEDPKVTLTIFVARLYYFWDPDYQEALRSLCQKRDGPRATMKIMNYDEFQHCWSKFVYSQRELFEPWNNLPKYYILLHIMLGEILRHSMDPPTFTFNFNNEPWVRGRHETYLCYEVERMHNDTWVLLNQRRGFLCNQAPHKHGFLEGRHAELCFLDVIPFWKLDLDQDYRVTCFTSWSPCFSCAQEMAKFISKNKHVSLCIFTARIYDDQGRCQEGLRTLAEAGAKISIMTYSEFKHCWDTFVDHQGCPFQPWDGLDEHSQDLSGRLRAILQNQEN

target: DNA dC->dU-editing enzyme APOBEC-3G (Homo sapiens) (UniProt Q9HC16); assay: APOBEC3G DNA deaminase inhibitors, primary screen, biochemical, fluorescence, single-stranded DNA substrate, uHTS (AID 493012); settings: recombinant A3G, ssDNA deamination FAM/TAMRA fluorescence; at 20 µM; hits give high values;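 further: plate controls were DMSO wells with A3G for no effect and wells lacking A3G enzyme for full effect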

Row | Structure (SMILES) | inhibition
1 | COc1ccccc1OP(=O)(Nc1ccc(C)cn1)Oc1ccccc1OC | inactive: -5.08%
2 | Cc1ccc(OP(=O)(Nc2nccs2)Oc2ccc(C)cc2)cc1 | inactive: -8.61%
3 | CN1CCCC(OC(=O)C(c2ccccc2)c2ccccc2)C1 (centres undefined) | inactive: -5.23%
4 | Clc1ccc(Cl)c(NC2=NCC(CBr)S2)c1 (centres undefined) | inactive: -6.8%
5 | NC(=O)c1cc([N+](=O)[O-])cc([N+](=O)[O-])c1N | inactive: -5.62%
6 | CN(C(=O)Cc1ccc(Cl)c(Cl)c1)[C@H]1CCCC[C@H]1N1CCCC1 | inactive: -0.325%
7 | Cc1ccc(N/C(=N/P(=O)(N2CCOCC2)N2CCOCC2)N2CCOCC2)cc1 | inactive: -4.31%
8 | Nc1cc(N)c2nonc2c1[N+](=O)[O-] | inactive: -1.7%
9 | CC(C)CC(=O)NC(Sc1ccc(Cl)cc1)C(Cl)(Cl)Cl (centres undefined) | inactive: -5.09%
10 | Oc1ccccc1CNc1ccccn1 | inactive: -5.99%
11 | O=C(NC(Sc1ccncn1)C(Cl)(Cl)Cl)c1ccccc1 (centres undefined) | inactive: 26.4%
12 | Cc1c2non([O-])c-2c(C)[n+](=O)[n+]1[O-] | inactive: -0.912%
13 | Cc1cc(SC(NC(=O)c2ccc(F)cc2)C(Cl)(Cl)Cl)ncn1 (centres undefined) | inactive: 18.2%
14 | CCOP(=O)(Nc1ccccc1)OCC | inactive: 5.87%
15 | Cc1ccc(NP(=O)(Oc2ccccc2F)Oc2ccccc2F)nc1 | inactive: -3.6%
16 | CN(C(=O)Cc1ccc(Cl)c(Cl)c1)[C@H]1CCCC[C@@H]1N1CCCC1 | inactive: -9.31%
17 | CC(=O)Nc1ccc([As](=O)(O)O)cc1 | inactive: -2.03%
18 | O=C(O)c1ccccc1[As](=O)(O)O | inactive: 23.5%
19 | O=P(Nc1nc2ccc(Cl)cc2s1)(c1ccccc1)c1ccccc1 | inactive: -4.66%
20 | CCN(N=Nc1nonc1N)c1nonc1N | inactive: -3.31%
21 | O=[N+]([O-])c1cc([N+](=O)[O-])c(CCN2CCOCC2)c([N+](=O)[O-])c1 | inactive: -0.003%
22 | O=C(Nc1cc([As](=O)(O)O)ccc1O)c1ccccc1 | inactive: -7.12%

Row | Structure (SMILES) | inhibition
23 | O=[N+]([O-])c1cccc(NC2=NCC(CBr)S2)c1 (centres undefined) | inactive: -8.53%
24 | CC(C)(C)C(=O)NC(Sc1ccncn1)C(Cl)(Cl)Cl (centres undefined) | inactive: 14.8%
25 | O=[N+]([O-])c1ncn(CCn2ncnc2[N+](=O)[O-])n1 | inactive: -8.45%
26 | O=[N+]([O-])c1cccc2n[nH]nc12 | inactive: -1.38%
27 | CC(=O)N1C2C3N(C(C)=O)C1C1N(C(C)=O)C(C(N1C(C)=O)N3C(C)=O)N2C(C)=O | inactive: -4.49%
28 | Cc1ccc(NP(=O)(Oc2ccccc2)Oc2ccccc2)nc1 | inactive: -0.54%
29 | CCc1nc2c(n1)c1c(non1O)c1c2no[n+]1[O-] | inactive: -5.9%
30 | O=[N+]([O-])c1cc([N+](=O)[O-])c(CCNc2ccccc2)c([N+](=O)[O-])c1 | inactive: 0.621%
31 | COc1ccc(C2=NCC(CBr)S2)cc1 (centres undefined) | inactive: -1.05%
32 | CC(C)=N/N=C(\N)N[N+](=O)[O-] | inactive: 0.863%
33 | CN(C)C(=O)OCCc1n(C)cc[n+]1C | inactive: -6.64%
34 | CC1CCN(C(=O)Oc2c(Cl)cc(Cl)c3cccnc23)CC1 | inactive: 2.63%
35 | Nc1ccc([As](=O)(O)c2ccc(N)cc2)cc1 | inactive: 3.22%
36 | C[N+]1=C2C=CC=CC=C2SC12C([N+](=O)[O-])=CC([N+](=O)[O-])=C[C-]2[N+](=O)[O-] (centres undefined) | inactive: 58.6%
37 | CCN(/C(=N/P(=O)(N1CCOCC1)N1CCOCC1)N1CCOCC1)c1ccc(OC)cc1 | inactive: -4.3%
38 | c1nnnn1CCn1cnnn1 | inactive: -5.35%
39 | CC(C)C(=O)NC(Sc1ccccc1)C(Cl)(Cl)Cl (centres undefined) | inactive: -4%
40 | O=P(Nc1nccs1)(c1ccccc1)c1ccccc1 | inactive: 1.01%
41 | O=P(Nc1nc2ccccc2s1)(c1ccccc1)c1ccccc1 | inactive: -1.28%
42 | C[C@H]1OP(=O)(Oc2ccccc2)[C@H](O)[C@H](O)[C@H]1N=[N+]=[N-] (some centres undefined) | inactive: -9.12%
43 | O=P(Nc1ccccn1)(c1ccc(Br)cc1)c1ccc(Br)cc1 | inactive: -7.79%
44 | CN(C)C1(CNC(=O)c2ccc(Cl)c(S(N)(=O)=O)c2)CCCCC1 | inactive: -3.48%

Row | Structure (SMILES) | inhibition
45 | C(Cc1nn[nH]n1)Cc1nn[nH]n1 | inactive: -4.08%
46 | O=C(OC1CN2CCC1CC2)c1cccc(Cl)c1 (centres undefined) | inactive: -1.54%
47 | O=[N+]([O-])c1ncn(CCn2cnc([N+](=O)[O-])n2)n1 | inactive: -2.08%
48 | CCNC(=S)/N=C(\N)N[N+](=O)[O-] | inactive: -12.1%
49 | O=C(NC1CCS(=O)(=O)C1)NP(=S)(Oc1ccccc1)Oc1ccccc1 (centres undefined) | inactive: -2.26%
50 | c1ccc(-c2nn[nH]n2)c(-c2nn[nH]n2)c1 | inactive: -4.91%
51 | CCOC(=O)NC(Sc1ccccc1)C(Cl)(Cl)Cl (centres undefined) | inactive: -0.313%
52 | Cc1ccc(NP(=O)(Oc2cccc(C)c2)Oc2cccc(C)c2)nc1 | inactive: -7.79%
53 | CC(NC(=O)COC(=O)C(O)(c1ccccc1)c1ccccc1)c1ccccc1 (centres undefined) | inactive: 6.52%
54 | Cc1ccccc1OP(=O)(Nc1ccccn1)Oc1ccccc1C | inactive: 1.46%
55 | CN(C)C(=O)Oc1noc2ccccc12 | inactive: 1.74%
56 | COC(=O)c1cc2c(s1)N=C(c1ccccc1)N(C)P2(=O)N1CCOCC1 (centres undefined) | inactive: 22.7%
57 | CC(=O)NC(SC(=S)N(CC(C)C)CC(C)C)C(Cl)(Cl)Cl (centres undefined) | inactive: -8.84%
58 | O=C(OC1CN2CCC1CC2)c1ccccc1 (centres undefined) | inactive: -9.56%
59 | CCC(=O)N1C2C3N(C(=O)CC)C1C1N(C(=O)CC)C(C(N1C(=O)CC)N3C(=O)CC)N2C(=O)CC | inactive: 5.85%
60 | CC(C)(C)C(=O)NC(Sc1ccccc1)C(Cl)(Cl)Cl (centres undefined) | inactive: 8.31%
61 | O=P1(Nc2nc3ccc(Cl)cc3s2)COc2ccccc2O1 (centres undefined) | inactive: -3.5%
62 | CCOc1ccc(C2=NCC(CBr)S2)cc1 (centres undefined) | inactive: -10.4%
63 | CC(=O)Nc1ccc([As](=O)(O)O)c(O)c1 | inactive: -4.37%
64 | CC(=O)Nc1ccc(Oc2c([N+](=O)[O-])cc([N+](=O)[O-])cc2[N+](=O)[O-])cc1 | inactive: -0.951%
